The numbers were not newly measured in paper PMC6447844 (Cancer Science, 2019), which cites them from elsewhere.

In the data set the test system is patients with advanced NSCLC harboring MET exon 14 skipping mutations. The following applies: cited from earlier work.

Turning to `CN1CCC(COc2cnc(-c3cccc(Cn4nc(-c5cccc(C#N)c5)ccc4=O)c3)nc2)CC1` [Tepotinib], the “Median DOR” value is given as 12.39 months. Also, where the note is “95% CI, 33.9-72.5”, the ORR is listed as 53.6%.
